# Binding of CDR-mutated scFvs to a peptide of the spike HR2 region

Data: MIT Lincoln Laboratory AlphaSeq set, Li et al. 2023, doi:10.1038/s41467-023-39022-2, as distributed in FLAb.

Target peptide (SARS-CoV-2 spike, HR2 region): PDVDLGDISGINAS

The variants keep the heavy chain, the linker and the frameworks of Ab-14 (scFv order VH, three GGGGS repeats, VL).
VH: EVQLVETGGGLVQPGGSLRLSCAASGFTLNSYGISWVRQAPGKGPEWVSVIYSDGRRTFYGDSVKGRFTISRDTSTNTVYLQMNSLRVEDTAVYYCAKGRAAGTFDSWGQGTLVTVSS
VL: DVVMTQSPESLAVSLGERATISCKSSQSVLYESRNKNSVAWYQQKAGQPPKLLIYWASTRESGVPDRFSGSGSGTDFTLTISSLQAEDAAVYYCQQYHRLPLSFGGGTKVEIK

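The parent was found by panning a naive human phage display library on the peptide. Designed CDR sequences, proposed from the first random library and measured here. Their group label is 14L_En_HC (En: ensemble of fine-tuned language models; HC: hill climbing; a sequence that several methods proposed may carry one label only). Affinity was read by AlphaSeq, a pooled yeast mating assay with surface-displayed partners. Binding brings cells together so that they mate, and sequencing counts the barcode pairs among the diploids. Read counts were normalised to the haploid input and turned into Kd by a linear fit to BCL2-family pairs of known affinity, for each replicate. Each pool was mated in six replicate cultures.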

Variants are written as CDR1, CDR2 and CDR3 of the light chain (limits as in the source). Parent: KSSQSVLYESRNKNSVA, WASTRES, QQYHRLPLS.
Numbers give log10(Kd / nM), so 0 is 1 nM and 3 is 1 µM. Smaller is tighter.
Averages over replicates are reported, and they cover detected replicates only.
Where no diploid with the target was found in that replicate, the entry reads "nd": below detection, most likely a poor binder, though not proof of it.
The range of this assay differs from that of the first round, and the authors advise against merging the two.
The authors averaged sequences with at least three values out of six and counted those with two or fewer as poor binders.
Empty control strains, which show no peptide, gave a signal in 4% of pairings with all light chain designs; the median was 2.64 and 95% of these signals were weaker than 1.59. No background was subtracted. The control count says in how many pairings with the empty strains this scFv gave a signal, with their mean in brackets.
The parent sequence was in this pool as ten entries: three were never detected, three once, and four in most replicates, with averages from 0.34 to 2.37.

CDR-L1,CDR-L2,CDR-L3,"log10 Kd, replicates",mean log10 Kd (nM),signal with controls
ALGDVTRMESNKKNSIA,DMSNREN,QQYHRLPLS,-0.35 -0.53 -0.41 -0.63 -0.28 0.01,-0.36,1/18 (0.84)
MISQTFLIGMKAKNSVA,QTSTREE,QQYDRLPLS,nd 0.98 0.45 1.51 1.08 1.22,1.05,0/18
MLSDLVHMGVRNTNSVA,DNSTRGS,QQYDRLPLS,1.39 0.86 1.13 0.93 1.20 1.06,1.09,4/18 (2.94)
MFSQSVMTGSFYRNSVA,QTSTRES,QQYDRLPLS,0.72 1.01 0.77 1.06 0.73 0.79,0.85,0/18
KISMLMNFAQTNKNSIA,EMTTRES,QHYHRLPLS,1.80 1.34 1.56 1.93 1.36 3.29,1.88,0/18
KLGAATRFESSNEASIA,NNSTREE,QQYHRLPLS,nd 2.59 nd 1.82 2.02 3.29,2.43,2/18 (3.03)
HISESVFAQSKMKNSVA,ENSTRES,QQYDRLPLS,1.94 1.67 1.22 1.36 1.31 1.62,1.52,3/18 (2.81)
ALSQMMDMTSRNVNSVA,DLTTREN,QQYHRLPLS,-0.07 0.04 -0.21 -0.14 -0.07 0.14,-0.05,0/18
HFSQVTMYGSWAKNSVA,QTSTREE,QQYDRLPLS,0.52 1.11 1.00 1.09 1.11 0.59,0.90,0/18
TISQSAQMESHTKNSVA,DLNVRGS,QQYDRLPLS,0.48 1.68 0.54 0.45 0.58 0.60,0.72,0/18
KLRQVTGYESYNKNSVA,QTSTRAS,QFYHRLPLS,1.25 1.17 1.65 2.06 1.77 1.92,1.64,2/18 (2.02)
KLAQYVGGESRNKSSLA,DNSTRES,QQYERLPLS,2.59 3.26 2.93 2.85 3.40 3.53,3.09,1/18 (2.89)
TLGQSTMVESYNKNSVA,QANTREE,QDYHRLPLS,nd 1.85 nd nd nd 1.81,1.83,0/18
TIAQSMLYLSNLKNSIA,QAETREE,QQYHRLPIS,0.52 0.57 0.70 0.14 0.45 0.64,0.50,0/18
KLSLFYRVETLQKNSVA,DNSTRES,QDYDRLPLS,nd nd 4.56 nd 2.74 2.95,3.42,0/18
MISDMGLHDTRMQNSVA,NNSTREA,QQYHRLPLS,0.96 1.10 0.88 3.65 1.71 1.71,1.67,1/18 (2.67)
TISQMLMMQTSHKNSVA,GEETRYN,QQYHRLPLS,1.20 0.42 1.16 1.07 0.76 0.97,0.93,0/18
HLGGLMTWESKNRNSVA,QQETRAE,QQYHHLPLS,0.69 0.43 0.20 0.37 0.26 0.35,0.38,1/18 (2.61)
KLSMSMLMESRAKNSVA,ENSTRES,QHYHRLPLS,nd nd nd 3.48 nd 4.52,4.00,2/18 (2.73)
KIGFGTNGEKFQSNSVA,QASTREE,QQYHRLPLS,nd 1.14 1.45 1.23 1.11 1.66,1.32,2/18 (2.72)
KFGQSVLTGSYVRNSVA,QQSTREN,QQYDRLPLS,1.72 1.30 0.74 1.28 1.12 1.73,1.31,1/18 (2.32)
KIGGVTNGISRNKNSVA,EQSTREK,QQYNRLPLS,0.33 0.26 0.15 0.09 0.29 0.38,0.25,1/18 (2.95)
TLMQVGGYEMNEHNSIA,DLRTREN,QQYHRLPLS,2.90 1.17 1.16 1.27 1.08 1.26,1.48,0/18
QLGAVYDMTSKNKNSVA,EQSTREN,QQYHRLPLS,0.96 0.42 0.21 0.70 0.26 0.72,0.55,0/18
MITAMLRGVGRDKNSVA,NAQTREN,QHYNRLPLS,1.75 1.94 2.07 1.92 1.90 1.99,1.93,4/18 (2.65)
KLSASTYRESMHENNVA,DLRARVE,QQYHRLPLS,0.41 0.22 0.08 0.23 -0.07 0.30,0.19,1/18 (3.01)
KLLQVTGYESYVRNSVA,QMSTRAE,QDYNRLPLS,0.56 0.42 0.23 0.08 0.02 0.55,0.31,0/18
ALSQSMDMTSRNKNSVA,DLSTRAN,QQYHRLPLS,-0.18 -0.27 -0.24 -0.21 -0.33 -0.18,-0.24,0/18
TISQSTYWENRNKNSVA,QTSTREE,QDYDRLPLS,1.68 1.85 1.73 1.66 2.22 2.96,2.02,3/18 (2.34)
TLGQVTMQLMVNKNSVA,DANTSED,QQYDRLPLS,nd 1.78 nd 2.39 2.73 nd,2.30,0/18
KISMLQRFQSNAKNNIA,EMSRREE,QQYHRLPLS,0.23 0.27 0.03 0.25 0.05 0.01,0.14,1/18 (3.99)
ALSQSMDMTSRNKNSVA,DLSLREN,QQYHRLPLS,0.73 0.33 0.69 0.44 0.34 0.48,0.50,1/18 (2.70)
MFPQEVMYEQHFKNNVA,QTSTREN,QQYDMLPLS,0.80 0.48 0.74 0.24 0.57 0.33,0.53,0/18
KLRESHHVESKQKNNVA,DNSTRES,QDYHRLPLS,nd 2.76 1.55 1.66 2.17 2.47,2.12,3/18 (2.83)
TITQVTMVESYNKNSVA,QASTRLE,QDYHRLPLS,2.00 1.74 1.71 2.13 1.80 2.68,2.01,1/18 (2.77)
KLSQVTHSEHKNTNSIA,EMVTREK,QQYDRLPLS,0.06 0.32 0.01 -0.41 0.37 0.17,0.09,1/18 (1.68)
KISYMGEHFSTNHSAIA,QASTREE,QQYHRLPIS,0.90 0.98 1.10 1.06 1.06 1.90,1.17,1/18 (2.90)
KISQMQNFESTHINAVA,QMSTREE,QQYFRLPLS,0.44 0.18 0.14 0.14 0.29 0.35,0.26,0/18
MISDLTMYGSRNLNSVA,DLSTRGS,QQYHRLPLS,-0.02 -0.02 -0.32 -0.36 -0.23 -0.13,-0.18,1/18 (1.74)
MFSQLFMYGSRNYNSVA,QASTREN,QQYDRLPLI,1.57 1.70 1.61 1.35 1.99 1.41,1.60,0/18
MISDLTMTGSRNKNSVA,DLSTRGS,QQYHRLPLS,-0.02 -0.37 -0.14 0.01 0.08 0.19,-0.04,0/18
IISQVDAYESRVKNSIA,DQSTRGS,QQYDRLPLS,1.11 1.66 1.43 1.65 1.34 1.12,1.38,0/18
TLMQVGGYETNAHNSIA,DLRTREN,QQYHRLPLS,0.75 0.72 0.84 0.61 0.89 0.71,0.75,0/18
IISGVMSVESKHKNSVA,NAETREY,QHYDRLPLS,nd 1.82 1.02 1.97 2.06 1.11,1.60,3/18 (2.46)
HISQSFMTESVWRNNVA,HQSTREQ,QQYDRLPLS,0.98 0.32 1.17 0.72 0.72 0.59,0.75,0/18
MISQSFLIGSRAKNSVA,QTSTRES,QQYDRLPLM,-0.22 -0.40 -0.58 -0.59 -0.24 -0.30,-0.39,0/18
KLLQNVTTEGKNRNNVA,HMTMREQ,QQYWRLPLS,1.91 1.89 1.68 1.12 1.78 2.15,1.75,0/18
TISTMMRYESSLKNAIA,NAQTRES,QQYHRLPIS,nd nd nd nd nd 2.09,2.09,0/18
TISQMFLGESRWRNSVA,QASTRES,QSYDRLPLS,1.50 1.59 1.43 1.16 1.38 1.86,1.49,3/18 (3.04)
NVGQLMDGGTRNRNNVA,HQSTRED,QHYHRLPLS,0.86 0.94 0.70 0.96 0.21 0.84,0.75,1/18 (2.90)
HLSDLVKMESRNTNSVA,DNSTRGS,QQYDRLPLS,nd nd 1.82 nd 3.06 3.54,2.81,2/18 (1.88)